Reported properties for industrial, environmental and drug-like chemicals

From the experimental data distributed with OPERA 2.9.

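The numbers are reported measurements, compiled and curated for the OPERA QSAR suite. A listed value is a point estimate from one report or more. Method, purity and exact conditions of the single measurements are not given. The measured form (salt, isomer or mixture) is not always the one drawn. Some entries may be limits or estimates that an upstream database listed as plain numbers.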

The melting point is given in degrees Celsius. Boiling points are in °C, nominally at 760 mmHg. logP is the log10 of the octanol-water partition coefficient; higher is more lipophilic. Water solubility is log10 of mol/L, nominally at 25 °C; higher is more soluble. Vapor pressure is log10 of mmHg; the set covers 15 to 30 °C, mostly 20 to 25 °C. The unbound fraction in human plasma runs from 0 (all bound) to 1 (all free). Clint is human hepatic intrinsic clearance in µL/min per million cells; 0 means that no clearance was seen. "n/a" marks a cell with nothing listed here.

structure (SMILES),name,mp (°C),boiling point (°C),logP,log solubility (log10 mol/L),vapor pressure (log10 mmHg),fraction unbound,hepatic Clint (µL/min/10^6 cells)
CCOC(=O)C(C)(C)c1ccccc1,ethyl 2-methyl-2-phenylpropanoate,n/a,n/a,3.5,-3.046,n/a,n/a,n/a
CC1C/C=C/CCCCCCCCC(=O)C1 (stereo partly drawn),(5E)-3-Methylcyclotetradec-5-en-1-one,n/a,n/a,n/a,-4.684,-2.171,n/a,n/a
O=C(c1ccccc1)c1ccc(O)cc1O,"2,4-dihydroxybenzophenone",n/a,n/a,n/a,n/a,n/a,0.0113,39.3
NC(=O)NC(=O)[O-].[K+],Potassium carbamoylcarbamate,298.3,n/a,-1.08,n/a,n/a,n/a,n/a
COC=C(C(=O)OC)c1ccccc1CCl,Methyl 2-(2-(chloromethyl)phenyl)-3-methoxyacrylate,91.5,n/a,n/a,n/a,-4.472,n/a,n/a
CC(=O)O[BH-](OC(C)=O)OC(C)=O.[Na+],Sodium triacetoxyborohydride,n/a,n/a,-2.88,n/a,-4.369,n/a,n/a
CCC(C)C1CCCCC1=O (centres undefined),2-sec-Butylcyclohexan-1-one,n/a,221,n/a,n/a,0.668,n/a,n/a
CC(=O)OCCC1=CC[C@H]2C[C@@H]1C2(C)C,"Nopyl acetate, (-)-",n/a,n/a,4.24,-4.05,-1.853,n/a,n/a
Cc1ccc(N=Nc2c(O)ccc3ccccc23)c(C)c1,C.I. Solvent Orange 7,n/a,n/a,6.6,-6.705,-7.932,n/a,n/a
CCCCCCCCCCCC(=O)OC,Methyl dodecanoate,n/a,n/a,n/a,-4.69,n/a,0.03637,n/a
CC(C)(C)c1cc2c(c(C(C)(C)C)c1)OP(=O)(O)Oc1c(cc(C(C)(C)C)cc1C(C)(C)C)C2,n/a,326.5,340,2.97,-4.582,n/a,n/a,n/a
Clc1c(Cl)c(Cl)c(Oc2c(Cl)c(Cl)c(Cl)c(Cl)c2Cl)c(Cl)c1Cl,Decachlorodiphenyl ether,221,n/a,n/a,-12.95,n/a,n/a,n/a
Nc1nc(Cl)nc2c1ncn2[C@H]1C[C@H](O)[C@@H](CO)O1,Cladribine,n/a,n/a,n/a,-1.653,n/a,0.9386,n/a
CCCCCCCCC,Nonane,n/a,n/a,n/a,n/a,n/a,0.08128,0.7797
C=CC(=O)OCCCCOC(=O)Oc1ccc(C(=O)c2ccccc2)cc1,n/a,-42.1,n/a,3.7,-5.42,-4.508,n/a,n/a
CCN(CCOc1ccc(C2CCCCC2)cc1)c1ccc(C=C(C#N)C#N)c(C)c1,n/a,n/a,n/a,6.8,-8.771,n/a,n/a,n/a
COC(=O)c1ccccc1C,Methyl 2-methylbenzoate,n/a,n/a,n/a,-1.757,-1.014,n/a,n/a
C=CCOC(=O)C1CCCCC1C(=O)OCC=C (centres undefined),"Diprop-2-en-1-yl cyclohexane-1,2-dicarboxylate",n/a,n/a,3.54,-3.361,n/a,n/a,n/a
Clc1ccc(Oc2c(Cl)cc(Cl)c(Cl)c2Cl)c(Cl)c1,"2,2',4,4',5,6-Hexachlorodiphenyl ether",121,n/a,n/a,-8.285,n/a,n/a,n/a
CCN(CC)c1ccc(N=Nc2c(C#N)cc(C)cc2C#N)c(NS(C)(=O)=O)c1,n/a,210.9,n/a,3.7,-7.233,-6.417,n/a,n/a
C[C@H](/C=C/[C@H](C)C(C)(C)O)[C@H]1CC[C@H]2/C(=C/C=C3C[C@@H](O)C[C@H](O)C3)CCC[C@]12C,Paricalcitol,n/a,n/a,4.5,-4.787,n/a,n/a,n/a
CC(CC(C)C)=NO,N-(4-Methyl-2-pentanylidene)hydroxylamine,n/a,n/a,1.54,n/a,-0.147,n/a,n/a
Clc1ccc(Oc2ccc(Cl)c(Cl)c2Cl)c(Cl)c1Cl,"2,2',3,3',4,4'-Hexachlorodiphenylether",138,n/a,n/a,-8.14,n/a,n/a,n/a
O[C@@H]1[C@@H]2O[C@@H]3[C@@H](O)[C@H](O)[C@H](O[C@@H]4[C@@H](O)[C@H](O)[C@H](O[C@@H]5[C@@H](O)[C@H](O)[C@H](O[C@@H]6[C@@H](O)[C@H](O)[C@H](O[C@@H]7[C@@H](O)[C@H](O)[C@H](O[C@@H]8[C@@H](O)[C@H](O)[C@H](O[C@@H]9[C@@H](O)[C@H](O)[C@H](O[C@H]([C@H]1O)[C@H](CBr)O2)O[C@H]9CBr)O[C@H]8CBr)O[C@H]7CBr)O[C@H]6CBr)O[C@H]5CBr)O[C@H]4CBr)O[C@H]3CBr,n/a,n/a,n/a,3.5,-6.419,-4.617,n/a,n/a

3 of these entries, quoted again:

{"smiles": "COC=C(C(=O)OC)c1ccccc1CCl", "name": "Methyl 2-(2-(chloromethyl)phenyl)-3-methoxyacrylate", "mp (°C)": "91.5", "vapor pressure (log10 mmHg)": "-4.472"}
{"smiles": "CCCCCCCCCCCC(=O)OC", "name": "Methyl dodecanoate", "log solubility (log10 mol/L)": "-4.69", "fraction unbound": "0.03637"}
{"smiles": "CCOC(=O)C(C)(C)c1ccccc1", "name": "ethyl 2-methyl-2-phenylpropanoate", "logP": "3.5", "log solubility (log10 mol/L)": "-3.046"}